{
  "sequences": {"note": "Chains of the proteins cited; added tags and fusions are not shown. Lines headed by an entry give the natural chain unless they say otherwise; changes in a name come on top.", "UniProt P17931": "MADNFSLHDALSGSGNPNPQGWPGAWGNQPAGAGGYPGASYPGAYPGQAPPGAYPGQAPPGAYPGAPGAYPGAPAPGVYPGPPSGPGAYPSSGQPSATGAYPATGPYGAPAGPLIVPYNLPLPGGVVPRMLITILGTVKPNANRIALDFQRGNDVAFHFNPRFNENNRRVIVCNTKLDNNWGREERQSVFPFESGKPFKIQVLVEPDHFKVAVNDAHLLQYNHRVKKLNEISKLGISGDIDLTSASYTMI"},
  "source": "paper PMC8016950",
  "about": "(2021)",
  "key": {"[1]": {"target": "T1, full length human galectin-3 (hGal3), Cys173 mutated to Thr (human, UniProt P17931 1-250, Cys173 mutated to Thr)", "assay": "SPR"}, "[2]": {"target": "T1, full length human galectin-3 (hGal3), …", "assay": "ELISA"}},
  "data": [
    {"binder": "GaletuzuFab-PAS200-Cy7 (Fab, V domains shown, Cy7 coupled via maleimide to the C-terminal Cys) VH: QIQLVQSGAEVKKPGESLKISCKVSGYTFTDYAIHWVRQMPGKGLKWMGWINTYTGKPIYADDFKGQVIISLDKSINTAYLQWSSLKASDTAIYYCARGTMMASLDYWGQGTTVTVSS VL: DVVMTQSPSSLSASVGDRVTITCKSSQSLVHSDGKTYLSWIQQKPGKAPKGLIYLVSKLDSGVPSRFSGSGSETDFTLTISSLQPEDSATYYCWQATHFPLTFGPGTKVDIR", "values": [
      {"measurement": "Kd", "setting": "[1]", "value": 240, "unit": "pM"}
    ]},
    {"binder": "GaletuzuFab-PAS200-Cys (Fab, V domains shown) VH: QIQLVQSGAEVKKPGESLKISCKVSGYTFTDYAIHWVRQMPGKGLKWMGWINTYTGKPIYADDFKGQVIISLDKSINTAYLQWSSLKASDTAIYYCARGTMMASLDYWGQGTTVTVSS VL: DVVMTQSPSSLSASVGDRVTITCKSSQSLVHSDGKTYLSWIQQKPGKAPKGLIYLVSKLDSGVPSRFSGSGSETDFTLTISSLQPEDSATYYCWQATHFPLTFGPGTKVDIR", "values": [
      {"measurement": "Kd", "setting": "[2]", "value": 1500, "unit": "pM"}
    ]},
    {"binder": "GaletuzuFab-PAS200-Dfo (Fab, V domains shown, deferoxamine (Dfo) coupled via maleimide to the C-terminal Cys) VH: QIQLVQSGAEVKKPGESLKISCKVSGYTFTDYAIHWVRQMPGKGLKWMGWINTYTGKPIYADDFKGQVIISLDKSINTAYLQWSSLKASDTAIYYCARGTMMASLDYWGQGTTVTVSS VL: DVVMTQSPSSLSASVGDRVTITCKSSQSLVHSDGKTYLSWIQQKPGKAPKGLIYLVSKLDSGVPSRFSGSGSETDFTLTISSLQPEDSATYYCWQATHFPLTFGPGTKVDIR", "values": [
      {"measurement": "Kd", "setting": "[1]", "value": 260, "unit": "pM"}
    ]}
  ]
}
